pIC50: −log10 of the molar value.
Key:
Assay type in all cases: cell-based
[1] = biological target: T1, Monoacylglycerol lipase ABHD6 (Homo sapiens, UniProt Q9BV23); assay: Inhibition of human ABHD6 expressed in HEK293 cells at 1 uM pre-incubated for 10 mins before 2-AG substrate addition followed by rapid 40 fold compound dilution measured after 10 mins by HPLC method
T1 sequence (Q9BV23 whole entry): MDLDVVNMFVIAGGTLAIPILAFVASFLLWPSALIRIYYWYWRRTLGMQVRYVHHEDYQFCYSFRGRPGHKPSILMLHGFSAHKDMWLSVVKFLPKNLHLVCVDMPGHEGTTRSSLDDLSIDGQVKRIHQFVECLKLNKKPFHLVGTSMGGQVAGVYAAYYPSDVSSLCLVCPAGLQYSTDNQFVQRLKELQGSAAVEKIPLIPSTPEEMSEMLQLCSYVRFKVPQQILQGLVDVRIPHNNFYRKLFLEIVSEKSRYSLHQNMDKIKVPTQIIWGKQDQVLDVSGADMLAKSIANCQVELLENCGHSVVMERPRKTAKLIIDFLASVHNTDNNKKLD
Method in brief: (§1)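 Reversibility test in 96-well format using a 40-fold dilution method first described for MAGL inhibitors. The inhibitor-treated hABHD6 preparation is rapidly diluted 40-fold, then activity is read at incubation times of 10, 30, 60 and 90 min. Values are pIC50, as means ± SEM of three to seven independent experiments.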

[2] = biological target: T1, Monoacylglycerol lipase ABHD6; assay: Inhibition of human ABHD6 expressed in HEK293 cells at 1 uM pre-incubated for 10 mins before 2-AG substrate addition followed by rapid 40 fold compound dilution measured after 90 mins by HPLC method; method in brief: as §1
[3] = biological target: T1, Monoacylglycerol lipase ABHD6; assay: Inhibition of human ABHD6 expressed in HEK293 cells at 1 uM pre-incubated for 10 mins before 2-AG substrate addition followed by rapid 40 fold compound dilution measured after 60 mins by HPLC method; method in brief: as §1
[4] = biological target: T1, Monoacylglycerol lipase ABHD6; assay: Inhibition of human ABHD6 expressed in HEK293 cells at 1 uM pre-incubated for 10 mins before 2-AG substrate addition followed by rapid 40 fold compound dilution measured after 30 mins by HPLC method; method in brief: as §1

pIC50 [1]: 7.88
pIC50 [2]: 7.43
pIC50 [3]: 7.70
pIC50 [4]: 7.85
SMILES: CCCCCCCCCCC[C@@H](C[C@@H]1OC(=O)[C@H]1CCCCCC)OC(=O)[C@H](CC(C)C)NC=O [ORLISTAT]

Reference: ChEMBL document CHEMBL3612019, “Revisiting 1,3,4-Oxadiazol-2-ones: Utilization in the Development of ABHD6 Inhibitors” (Bioorg Med Chem, 2015)
